# The list shows a part of the results, in another mix than the full data. Some salts and complexes are drawn in separate pieces, as the source files them; their charges need not balance. Calls of active or inactive are those of the source. Cut-off read from the data, not from the text of the source: active = survival enhancement above about 18%; inactive = the rest.
# Experiment: enhancers of single-cell hiPSC survival, primary screen, ATPlite luminescence (AID 602274);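 note: cells exposed to compounds for 16 hours before the ATP read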
# Conditions: at 20 µM, hits give high values, 100% = ROCK inhibitor wells, 0% = DMSO
row,SMILES,survival enhancement
1,CP(=O)(Nc1ccc(SC(F)(F)F)cc1)Oc1ccc(F)cc1 (centres undefined),inactive: 1.2%
2,CCOP(C)(=S)SCC(=O)NC(C)(CC)C(=O)O (centres undefined),inactive: 3.9%
3,CP(=O)(Nc1ccc2c(c1)OCCO2)Oc1ccccc1 (centres undefined),inactive: -2.5%
4,O=[N+]([O-])c1cc([N+](=O)[O-])c(C(F)(F)F)c([N+](=O)[O-])c1O,inactive: -0.6%
5,Cc1ccccc1NP(C)(=O)Nc1ccccc1C,inactive: -1.4%
6,CN(C)C1(CNC(=O)c2ccc(Cl)c(S(N)(=O)=O)c2)CCCCC1,inactive: 0.1%
7,COc1ccc(OP(C)(=O)Nc2cccc(Br)c2)cc1 (centres undefined),inactive: 0.1%
8,COc1ccc(NP(C)(=O)Oc2ccccc2OC)cc1 (centres undefined),inactive: 1.7%
9,CN(C)CCOC(=O)C(O)(c1ccccc1)C1CCCCC1 (centres undefined),inactive: -3.5%
10,O=[N+]([O-])c1cc([N+](=O)[O-])c(NCC2CCS(=O)(=O)C2)c([N+](=O)[O-])c1 (centres undefined),inactive: 0.5%
11,Cc1cc(-c2cccc3ccccc23)c(C)cn1.O=[N+]([O-])c1cc([N+](=O)[O-])c(O)c([N+](=O)[O-])c1,inactive: 2.5%
12,O=[N+]([O-])c1ccc(OP2(=O)COCCO2)cc1 (centres undefined),inactive: -0.4%
13,Cc1c(C(c2ccc3c(c2)OCO3)c2c(C)n(C)n(-c3ccccc3)c2=O)c(=O)n(-c2ccccc2)n1C.O=[N+]([O-])c1cc([N+](=O)[O-])c(O)c([N+](=O)[O-])c1,inactive: -0.5%
14,CCN(CC)CCCNc1ccccc1[N+](=O)[O-].O=[N+]([O-])c1cc([N+](=O)[O-])c(O)c([N+](=O)[O-])c1,inactive: -1.6%
15,COc1ccc(OP(C)(=O)Nc2ccc(SC(F)(F)F)cc2)cc1 (centres undefined),inactive: -1.6%
16,CCOC(=O)c1ccc(NP(C)(=O)Oc2ccc(F)cc2)cc1 (centres undefined),inactive: 1.7%
17,CCN(CC)CCCOC(=O)C(O)(c1ccccc1)C1CCCCC1 (centres undefined),inactive: 3.4%
18,Cc1c([N+](=O)[O-])cc([N+](=O)[O-])c(Br)c1[N+](=O)[O-],inactive: 2.6%
19,CCCCCOc1ccc(NP(C)(=O)Oc2ccc(Cl)cc2Cl)cc1 (centres undefined),inactive: -0.7%
20,O=[N+]([O-])c1cc([N+](=O)[O-])c(OC2CCCCC2O)c([N+](=O)[O-])c1 (centres undefined),inactive: -0.3%

row,SMILES,survival enhancement
1,CP(=O)(Nc1ccccc1)Oc1ccc(F)cc1 (centres undefined),inactive: 2%
2,O=[N+]([O-])c1cc([N+](=O)[O-])c(Nc2ccc(Cl)cc2)c([N+](=O)[O-])c1,inactive: -3.2%
3,CC(C)c1ccc(OP(C)(=O)Nc2ccc(SC(F)(F)F)cc2)cc1 (centres undefined),inactive: 0.3%
4,CP(=O)(Nc1ccccc1F)Oc1ccccc1 (centres undefined),inactive: -3.3%
5,O=C(OCCN1CCN(CCOCc2ccccc2)CC1)C(O)(c1ccccc1)c1ccccc1,inactive: 3.6%
6,O=C(OC1CN2CCC1CC2)c1ccc([N+](=O)[O-])cc1 (centres undefined),inactive: -0.3%
7,COc1ccc2c(c1O)-c1c(O)c(OC)cc3c1[C@H](C2)[N+](C)(C)CC3.O=[N+]([O-])c1cc([N+](=O)[O-])c([O-])c([N+](=O)[O-])c1[O-],inactive: -1.2%
8,COc1ccccc1OP(C)(=O)Nc1ccc(Br)cc1 (centres undefined),inactive: -0.7%
9,CN(C)CCOC(=O)C(O)(c1ccccc1)C1CCCC1 (centres undefined),inactive: 0.2%
10,COc1ccc(OP(C)(=O)Nc2ccccn2)cc1 (centres undefined),inactive: 1.9%
11,Cc1c(NP(C)(=O)Oc2ccc(C(C)C)cc2)c(=O)n(-c2ccccc2)n1C (centres undefined),inactive: -1%
12,O=[N+]([O-])c1cc([N+](=O)[O-])c(Nc2ccccn2)c([N+](=O)[O-])c1,inactive: -1.4%
13,CCc1ccc(OP(C)(=O)O)cc1,inactive: -0.1%
14,COc1ccccc1OP(C)(=O)Nc1ccc(C)cc1C (centres undefined),inactive: -1.9%
15,CP(=O)(Nc1ccccn1)Oc1ccccc1 (centres undefined),inactive: -1.5%
16,Cc1cc(C)cc(OP(C)(=O)Nc2cccc(C(F)(F)F)c2)c1 (centres undefined),inactive: -0.9%
17,O=C1C(O)=C([N+](=O)[O-])C(=O)C(O)=C1[N+](=O)[O-],inactive: -0.8%
18,COc1ccc(OP(C)(=O)Nc2ccccc2Br)cc1 (centres undefined),inactive: -0.1%
19,COc1ccccc1OP(C)(=O)Nc1ccc(C)c(C)c1 (centres undefined),inactive: 5.1%
20,CCCCCCCCCCCCCCCC1C[N+](C)(C)CCOP(C)(=O)O1 (centres undefined),inactive: 3.7%

row,SMILES,survival enhancement
1,CP(=O)(Nc1ccc(Cl)cc1Cl)Oc1ccccc1 (centres undefined),inactive: -0.8%
2,CP(=O)(OCCOc1ccccc1)OCCOc1ccccc1,inactive: 1%
3,CP(=O)(OC12CC3CC(CC(C3)C1)C2)OC12CC3CC(CC(C3)C1)C2,inactive: 2.8%
4,CCOC(=O)c1ccc(NP(C)(=O)Oc2ccc(Cl)cc2)cc1 (centres undefined),inactive: 4%
5,COc1ccc(OP(C)(=O)Nc2ccc(Br)cc2)cc1 (centres undefined),inactive: -1%
6,CCN(CC)CC(O)COC(=O)C(O)(c1ccccc1)C1CCCCC1 (centres undefined),inactive: 2.6%
7,CCc1ccc(OP(C)(=O)Nc2cccnc2)cc1 (centres undefined),inactive: 0.4%
8,CP(=O)(Oc1ccccc1)N1CCOC1=O (centres undefined),inactive: 2.3%
9,O=C(OCCCN1CCCC1)C(O)(c1ccccc1)C1CCCCC1 (centres undefined),inactive: -0.8%
10,COc1ccccc1OP(C)(=O)Nc1c(C)n(C)n(-c2ccccc2)c1=O (centres undefined),inactive: -1.8%
11,CP(=O)(Nc1ccc(Cl)cc1)Oc1ccc(F)cc1 (centres undefined),inactive: -0.8%
12,COc1ccccc1OP(C)(=O)Nc1ccccc1Br (centres undefined),inactive: -0.4%
13,CC(C)(C)c1ccc(OP(C)(=O)O)cc1,inactive: 4.4%
14,CN(C)C(=O)c1c([N+](=O)[O-])cc([N+](=O)[O-])cc1[N+](=O)[O-],inactive: -2.4%
15,CP(=O)(Oc1ccccc1)OC(c1ccccc1)C(F)(F)F (centres undefined),inactive: 0.5%
16,Cc1cccc(C)c1OP(C)(=O)Nc1ccc(SC(F)(F)F)cc1 (centres undefined),inactive: -1.1%
17,Cc1ccc(Nc2c([N+](=O)[O-])cc([N+](=O)[O-])cc2[N+](=O)[O-])cc1,inactive: -2.5%
18,CP(=O)(Nc1ccc(SC(F)(F)F)cc1)Oc1ccc(Cl)cc1 (centres undefined),inactive: 0.2%
19,Cc1cc(C)cc(OP(C)(=O)Nc2ccc(SC(F)(F)F)cc2)c1 (centres undefined),inactive: 1.6%
